Binding of CDR-mutated scFvs to a peptide of the spike HR2 region

All variants were tested on one target, the spike HR2 peptide PDVDLGDISGINAS (SARS-CoV-2).

Ab-14 is the parent antibody, in scFv form: VH, then a 15-residue (Gly4Ser)3 linker, then VL. The light chain is unchanged in all variants.
VH: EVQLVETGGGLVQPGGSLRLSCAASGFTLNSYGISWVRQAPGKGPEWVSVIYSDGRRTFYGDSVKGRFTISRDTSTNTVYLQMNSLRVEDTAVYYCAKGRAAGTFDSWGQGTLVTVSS
VL: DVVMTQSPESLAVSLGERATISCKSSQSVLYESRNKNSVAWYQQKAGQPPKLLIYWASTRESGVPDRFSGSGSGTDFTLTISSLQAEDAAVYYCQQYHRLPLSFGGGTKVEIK

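The starting antibody came from a phage panning campaign against this peptide. This is the validation round: designs drawn from the data on random variants, tested in the same kind of assay. Their group label is 14H_En_Gibbs (En: ensemble of fine-tuned language models; Gibbs: Gibbs sampling). AlphaSeq pools MATa yeast showing the antibodies with MATalpha yeast showing the peptide. Mating (16 h, 30 °C) was followed by selection of diploids and sequencing of their barcodes. The ratio of observed to expected reads was calibrated, replicate by replicate, on BCL2-family standards whose Kd was known from biolayer interferometry. Mating was done six times.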

The parent's heavy chain CDRs are GFTLNSYGIS, VIYSDGRRTFYGDSVK, GRAAGTFDS; each variant's own CDRs replace them letter for letter. Scale: log10 of Kd in nM, estimated from mating counts; low values are strong binders. Where no diploid with the target was found in that replicate, the entry reads "nd": below detection, most likely a poor binder, though not proof of it. Nonspecific signal, from three strains lacking the peptide, appeared in 1% of pairings of all heavy chain designs, centred on 2.08 (5% of these signals below 0.84); values are not corrected for it. The control count says in how many pairings with the empty strains this scFv gave a signal.

With GFGIGEYGIS, VIYADGRRTFYSDDVK, GNMIVNGVD the result was 1.27, 0.86, 0.87, 0.62, 0.48, 0.92 (controls 0 of 18).
With GFDIEEYGIS, VIYADGIRQAYKNDVK, GMNVGRFSV the result was nd, nd, nd, nd, nd, nd (controls 0 of 18).
With GFNLDEYGIS, VIYADGMRTAYDSKVK, GQVWWNLLM the result was nd, nd, nd, nd, nd, nd (controls 0 of 18).
With GKDIDEYGIS, VIYADGIRTFYNDRVK, GNLGGQFDM the result was nd, nd, nd, 2.02, nd, nd (controls 0 of 18).
With GFDLNEYGVS, VIYADGQRTQYTDKVK, GSFSAAITN the result was nd, nd, nd, nd, nd, nd (controls 0 of 18).
With GFDINEYGIS, VIYADGSRQAYADNVK, GFWGCVLYV the result was nd, nd, nd, nd, nd, nd (controls 0 of 18).
With GFDINEYGIS, VIYADGVRTHYVDDVK, GKHTGMKMA the result was nd, nd, nd, nd, nd, nd (controls 0 of 18).
With EFNLNEFGIS, VIYADGKRTAYVPNVK, GHLGGHFDM the result was nd, nd, nd, nd, nd, nd (controls 0 of 18).
With GDSLDEYGIS, VIYADGQRKAYMDSVK, GNGQGTLFD the result was nd, nd, nd, nd, nd, nd (controls 0 of 18).
With GYNLQEYGVS, VIYADGRRSVYINSVK, GGSAGTFVF the result was nd, nd, nd, nd, nd, nd (controls 0 of 18).
With GRDIESYGIS, VIYADGLRTVYHDSVK, GQNAGFSIT the result was nd, nd, nd, nd, nd, nd (controls 0 of 18).
With EFDLNNYGIS, VIYADGLRTAYETSFK, GINAGTFDS the result was nd, 1.21, nd, 0.62, 2.87, 0.61 (controls 1 of 18).
With GFNLNEYGIS, VIYADGLRSQYIDSVK, GNAFIFGLD the result was nd, nd, nd, nd, nd, nd (controls 0 of 18).
With GFQLDEYGIS, VIYADGKRQYYAQKVK, GYNSTDMTV the result was nd, nd, nd, nd, nd, nd (controls 0 of 18).
With GVNLDEYGIS, VIYADGKRSHYTDKVK, GTFGDFMIV the result was nd, nd, nd, nd, nd, nd (controls 0 of 18).
With GFSIDEYGIS, VIYADGLRQHYTNAVK, GEAAGTFDT the result was -0.04, -0.39, -0.36, 0.08, 0.25, -0.13 (controls 1 of 18).
With GDKLEDYGIS, VIYADGRRSAYVENVK, GEYAGYFDV the result was nd, nd, nd, nd, nd, nd (controls 0 of 18).
With GFDIEEYGIS, VIYADGMRTVYSDSFK, SGRTFNMDL the result was nd, nd, nd, nd, nd, nd (controls 0 of 18).
With GFDLTEYGIS, VIYADGRRTAYQDSVK, GLNGGMLVV the result was nd, nd, nd, nd, nd, nd (controls 0 of 18).
With GQDLNEYGIS, VIYADGLRTAYLNNFK, GVNAGFDQY the result was nd, nd, nd, nd, nd, nd (controls 0 of 18).
With GEDLGEYGIS, VIYADGVRASYIDSVK, GESTGFVDV the result was nd, nd, nd, nd, nd, nd (controls 0 of 18).
With GFQLEEYGIS, VIYADGFRASYTDDVK, GQNGSVNLR the result was nd, nd, 2.07, nd, nd, nd (controls 0 of 18).
With GFYLNEYGIS, VIYADGIRSVYANKVK, GNGAGTLDY the result was nd, nd, nd, nd, nd, nd (controls 0 of 18).
With GFDIQDYGIS, VIYADGSRTAYVNSVK, GEQGATYDL the result was nd, nd, nd, nd, nd, 2.59 (controls 0 of 18).
With GFGLNEYGIS, VIYADGQRTSYAQSVK, DANDIIGLV the result was nd, nd, nd, nd, nd, nd (controls 0 of 18).
With GFNLEEYGIS, VIYADGMRSEYADNVK, GHKGNWFQD the result was nd, nd, 4.50, nd, nd, nd (controls 1 of 18).
With GFDINEYGVS, VIYADGMRAAYTDSVK, GKGAGIALV the result was nd, nd, nd, nd, nd, nd (controls 0 of 18).
With GFNLDEYGIS, VIYADGVRTFYSNSVK, GYGGTFMEG the result was nd, nd, nd, 4.05, nd, nd (controls 1 of 18).
With GFWLDEYGIS, VIYADGMRTAYKNSVK, GSFTYVMQV the result was nd, nd, nd, nd, nd, nd (controls 0 of 18).
With GKDIEEYGIS, VIYADGMRQAYLDKVK, GNNGGSGSF the result was nd, nd, nd, nd, nd, nd (controls 0 of 18).
With GFTIGEYGIS, VIYADGERTAYSNAVK, GNMAGTFSF the result was 0.09, -0.13, -0.04, -0.36, -0.25, -0.57 (controls 0 of 18).
With GEDLDEYGVS, VIYADGIRSTYADKVK, GKHGAAFFV the result was nd, nd, nd, nd, nd, nd (controls 0 of 18).
With GFDLDEYGIS, VIYADGIRQYAQDNVK, GLLSGMTIT the result was nd, nd, nd, nd, nd, nd (controls 0 of 18).
With GFKLNEYGIS, VIYADGQRKSYADSFK, GTWAGMVIE the result was nd, 0.47, nd, nd, nd, nd (controls 1 of 18).
With GFGLNEYGIS, VIYADGQRKFYADNVK, GVFGSLGQV the result was nd, nd, nd, nd, nd, nd (controls 0 of 18).
With GFDLEEYGIS, VIYADGMRTQYINAVK, GIIGDNMDL the result was nd, nd, nd, nd, nd, nd (controls 1 of 18).
With GFELDEYGIS, VIYADGARTAYVDNVK, GDAVGDFHV the result was nd, 1.84, nd, nd, nd, nd (controls 0 of 18).
With GFDLEEMGIS, VIYADGARKVYTNSVK, GGFGGQMLV the result was nd, nd, nd, nd, nd, nd (controls 0 of 18).
With GFDLTEYGIS, VIYADGKRSVYTNDVK, GELGLGFVI the result was nd, nd, nd, nd, nd, nd (controls 1 of 18).
With KFDIEEYGIS, VIYADGKRTSYSNAVK, GNQGGTFNT the result was nd, -0.63, -0.78, -1.13, -1.09, -0.03 (controls 0 of 18).
With GYDIEQYGIS, VIYADGMRTVYHDSVK, GHEGDTFYV the result was nd, nd, nd, nd, nd, 2.71 (controls 2 of 18).
With GMDLNEYGIS, VIYADGRRAATINQVK, GSNSDTFSL the result was nd, nd, nd, nd, nd, nd (controls 0 of 18).
With GFDLGEYGIS, VIYADGRRFAYSQSVK, GLNEGMLDI the result was nd, nd, nd, nd, nd, nd (controls 0 of 18).
With GFDLNEYGIS, VIYADGTKTAYANTVK, GKYVGVFVD the result was 1.42, 1.67, nd, 2.22, 0.77, nd (controls 0 of 18).
With GFDFNEYGIS, VIYADGKRTAYADKVK, GGKNAFTDI the result was nd, 4.88, nd, nd, nd, nd (controls 1 of 18).
With GFSLDEYGIS, VIYADGLRKQYSNKVK, GLQGFFFDQ the result was nd, nd, nd, nd, nd, nd (controls 0 of 18).
With GFDLTEYGIS, VIYADGRRTEYDNDVK, GQVAGIFLD the result was nd, nd, nd, nd, nd, nd (controls 0 of 18).
With EFDLQEFGIS, VIYADGKREAYKDDFK, GQVAGTFDE the result was nd, nd, nd, nd, nd, nd (controls 0 of 18).
With GFDINEYGIS, VIYADGNRTMYQDQVK, GGNGGSFVI the result was nd, nd, nd, nd, nd, nd (controls 0 of 18).
With GEDLDEYGIS, VIYADGMRQYYVNNVK, GDINDVDDL the result was nd, nd, nd, nd, nd, nd (controls 0 of 18).

The 3 strongest on average among those seen in every replicate, once more:

CDR-H1	CDR-H2	CDR-H3	log10 Kd (nM) by replicate	control signals
GFTIGEYGIS	VIYADGERTAYSNAVK	GNMAGTFSF	0.09, -0.13, -0.04, -0.36, -0.25, -0.57	0 of 18
GFSIDEYGIS	VIYADGLRQHYTNAVK	GEAAGTFDT	-0.04, -0.39, -0.36, 0.08, 0.25, -0.13	1 of 18
GFGIGEYGIS	VIYADGRRTFYSDDVK	GNMIVNGVD	1.27, 0.86, 0.87, 0.62, 0.48, 0.92	0 of 18

The authors averaged sequences with at least three values out of six and counted those with two or fewer as poor binders. Of ten entries with the parent sequence, four were seen in most replicates (averages 0.34 to 2.37), three in one and three in none, so single entries are noisy. A sequence measured in both rounds can read differently, since the two assays cover different ranges.

Source: Li et al. 2023 (doi:10.1038/s41467-023-39022-2), MIT Lincoln Laboratory and A-Alpha Bio; data file from the FLAb repository.